Data from PubChem BioAssay AID1477 (National Center for Advancing Translational Sciences (NCATS), 2009).
Only a part is listed here, and it is no random draw. Records with an inconclusive call do not appear. The source made the active and inactive calls. The call rests on the fitted dose curve; in most records, active means well fitted curve in the direction sought with a large enough effect; inconclusive means small, poorly fitted or top-dose-only effect, or effect the other way, or another doubt; inactive means no such curve, though single readings can be large or run the other way.

Amino acid sequences for entries named in this document (tags omitted).
UniProt Q01196, whole entry partner: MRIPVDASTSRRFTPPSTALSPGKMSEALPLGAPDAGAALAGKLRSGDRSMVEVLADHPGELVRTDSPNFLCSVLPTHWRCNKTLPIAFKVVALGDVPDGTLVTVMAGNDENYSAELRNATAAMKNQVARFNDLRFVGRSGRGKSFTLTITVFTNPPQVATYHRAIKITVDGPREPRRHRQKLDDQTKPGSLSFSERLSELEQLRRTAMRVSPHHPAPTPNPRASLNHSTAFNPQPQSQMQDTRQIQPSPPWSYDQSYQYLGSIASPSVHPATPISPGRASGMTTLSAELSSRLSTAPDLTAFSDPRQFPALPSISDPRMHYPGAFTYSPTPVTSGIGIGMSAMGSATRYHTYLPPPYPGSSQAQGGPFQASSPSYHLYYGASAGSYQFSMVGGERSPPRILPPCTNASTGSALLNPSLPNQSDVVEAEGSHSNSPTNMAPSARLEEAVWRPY
UniProt Q13951, whole entry: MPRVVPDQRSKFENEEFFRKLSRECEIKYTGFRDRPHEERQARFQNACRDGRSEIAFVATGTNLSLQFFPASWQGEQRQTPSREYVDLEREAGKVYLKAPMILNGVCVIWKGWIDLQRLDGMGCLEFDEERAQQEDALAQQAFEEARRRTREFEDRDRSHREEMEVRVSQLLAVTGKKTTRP

Biological target: Runt-related transcription factor 1 (Homo sapiens) + Core-binding factor subunit beta (Homo sapiens) (UniProt Q01196+Q13951)
Experiment: qHTS Assay for Compounds Blocking the Interaction Between CBF-beta and RUNX1 for the Treatment of Acute Myeloid Leukemia; further: % of control where 0% means no effect
Conditions: AlphaScreen CBFb-His/RUNX1-biotin binding, biochemical

| Compound | activity, negative = inhibition (at 21.7 µM (top of the series)) | activity, negative = inhibition (at 59.8 µM (top of the series)) |
| --- | --- | --- |
| O=[N+]([O-])C(Cl)(Cl)Cl | inactive: 3.79% |  |
| CN(CCCl)CCCl | inactive: 1.81% | inactive: -4.99% |
